Like-named read-outs stand apart in the source and are kept apart here.
Test system: infertile patients (PCOS, unexplained infertility)

## N#Cc1ccc(C(c2ccc(C#N)cc2)n2cncn2)cc1 [letrozole]
Letrozole 5 days cycle
  Day of hCG administration: 13.2 (2.5)
Letrozole single-dose cycles
  Day of hCG administration: 12.9 (2.9)
